Protein sequences, listed by entry. Tags and fused reporters are not part of them.
UniProt P49654, whole entry: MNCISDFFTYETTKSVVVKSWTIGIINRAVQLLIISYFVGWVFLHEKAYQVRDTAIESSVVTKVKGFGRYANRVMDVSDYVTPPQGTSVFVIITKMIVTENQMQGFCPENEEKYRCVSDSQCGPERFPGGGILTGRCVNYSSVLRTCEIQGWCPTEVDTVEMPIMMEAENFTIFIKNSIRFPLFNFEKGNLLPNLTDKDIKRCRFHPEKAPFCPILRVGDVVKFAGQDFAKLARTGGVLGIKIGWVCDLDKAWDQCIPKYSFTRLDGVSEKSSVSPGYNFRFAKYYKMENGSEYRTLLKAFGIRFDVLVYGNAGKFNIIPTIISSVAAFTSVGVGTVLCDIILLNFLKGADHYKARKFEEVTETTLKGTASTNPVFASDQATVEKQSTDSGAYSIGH

According to patent publication US9505726B2, “Substituted biphenyl amides as P2X3 and P2X2/3 antagonists” (Roche Palo Alto LLC, priority 2009, dated 2016):

Target: rat P2X3 receptor (Rattus norvegicus, UniProt P49654)
Test: P2X3 FLIPR (Fluorometric Imaging Plate Reader) assay
Conditions: CHO-K1 cells transfected with cloned rat P2X3; agonist α,β-meATP 1 μM; Fluo-3 AM calcium fluorescence

SMILES | P2X3 (pIC50 values for the P2X3 receptor)
Cc1ccc(-c2cc(C(=O)NCc3cnc(C)cn3)cc(N(C)C(=O)C(C)C)c2)nc1 | 8.36
Cc1ccc(-c2cc(C(=O)NCc3cnc(C)cn3)cc(N(C)C(=O)C3(C)COC3)c2)nc1 | 7.09
